Assay results reported in patent US5843449A, “Proteins and novel peptides derived from autoantigen for use in immunotherapy of autoimmune diseases” (Akzo Nobel N.V., priority 1996, dated 1998).

Key:
DR4Dw14 HLA-DR molecules = test: HLA-DR peptide binding assay (competition with biotinylated marker peptide), DR4Dw14; parameters: species or system human; conditions: pH = 5, 50 nM biotin-spacer-IHA(307-319)F marker peptide
PBMC from RA patients = test: Proliferative responses of PBMC from RA patients (3H-thymidine); type: cell-based, human; conditions: 10% autologous serum
Method: Peripheral blood mononuclear cells (PBMC) from patients who were diagnosed as suffering from RA according to the American Rheumatism Association (ARA) criteria (Arnett et al., Arthritis Rheum. 31:315, 1988) were collected.
(§1) PBMC obtained from heparinized venous peripheral blood were isolated by standard centrifugation on a Ficoll-Paque gradient. […] Cultures were incubated in a total volume of 210 μl for 7 days at 37° C. in a humidified atmosphere of 5% CO2. Cultures were pulsed during the last 18 hours with 0.25 μCi^3 H-thymidine.

[1] = biological target: T1, DR4Dw4 (DRB1*0401) HLA-DR molecules (Homo sapiens, UniProt P01903+P01911, A100K/A169T/F76Y/I96L/K127E/L162R/M171V/N62H/P40V/Q125Y/R42H/S133A/S149N/S66Y/V115G/V209L/W38E); test: HLA-DR peptide binding assay (competition with biotinylated marker peptide), DR4Dw4; conditions: pH = 5, 50 nM biotin-spacer-IHA(307-319)F marker peptide; DOT Blot, densitometer; read-out: ^R IC50, DR4Dw4, DOT Blot
T1 construct: endogenous in cells; host or cells: BSM, EBV-transformed B-cell line

PBMC from healthy donors = test: Proliferative responses of PBMC from healthy donors (3H-thymidine); type: cell-based, human; conditions: 10% autologous serum
Method: PBMC's from healthy donors carrying the DR4Dw4 (DRB1*0401) or the DR1 specificity were collected as a control.
as §1

[2] = DOT Blot, densitometer, read-out: ^R IC50, DR4Dw14, DOT Blot

IC50 (DR4Dw14 HLA-DR molecules; [2]): 1950 nM
IC50 (DR4Dw14 HLA-DR molecules; SDS-PAGE, visual inspection, read-out: ^R IC50, DR4Dw14, SDS-PAGE): 2500 nM
SMILES: CC(C)C[C@H](NC(=O)[C@@H](NC(=O)[C@H](Cc1ccccc1)NC(=O)[C@H](CO)NC(=O)[C@H](CCCNC(=N)N)NC(=O)CNC(=O)[C@H](Cc1ccccc1)NC(=O)[C@@H](NC(=O)[C@@H]1CCCN1)[C@@H](C)O)[C@@H](C)O)C(=O)N[C@@H](C)C(=O)N[C@@H](CO)C(=O)N[C@@H](CO)C(=O)N[C@@H](CCC(=O)O)C(=O)O [Peptide 1]

IC50 [1]: 80 nM
IC50 (DR4Dw14 HLA-DR molecules; [2]): 400 nM
SMILES: CC[C@H](C)[C@H](NC(=O)[C@H](CCCCN)NC(=O)[C@H](CO)NC(=O)[C@H](Cc1ccccc1)NC(=O)[C@H](CCCNC(=N)N)NC(=O)[C@H](CCC(N)=O)NC(=O)[C@@H](N)CO)C(=O)N[C@@H](C)C(=O)N[C@@H](CO)C(=O)N[C@@H](CC(N)=O)C(=O)N[C@H](C(=O)N[C@@H](CCC(N)=O)C(=O)N[C@@H](CO)C(=O)N[C@@H](CCCNC(=N)N)C(=O)O)[C@@H](C)O [Peptide 4]
Proliferative response, stimulation index (SI) (PBMC from RA patients; RA patient 191-03 (HR), disease state IV, peptide 10 μg/l): < 2
Proliferative response, stimulation index (SI) (PBMC from RA patients; RA patient 191-03 (HR), disease state IV, peptide 100 μg/l): < 2
Proliferative response, stimulation index (SI) (PBMC from RA patients; RA patient 272-0 (HR), disease state III-IV, peptide 10 μg/l): < 2
Proliferative response, stimulation index (SI) (PBMC from RA patients; RA patient 272-0 (HR), disease state III-IV, peptide 100 μg/l): 6
Proliferative response, stimulation index (SI) (PBMC from RA patients; RA patient 273-0 (HR), disease state IV, peptide 10 μg/l): 3
Proliferative response, stimulation index (SI) (PBMC from RA patients; RA patient 273-0 (HR), disease state IV, peptide 100 μg/l): 29
Proliferative response, stimulation index (SI) (PBMC from RA patients; RA patient 275-0 (HR), disease state III, peptide 10 μg/l): < 2
Proliferative response, stimulation index (SI) (PBMC from RA patients; RA patient 275-0 (HR), disease state III, peptide 100 μg/l): 5
Proliferative response, stimulation index (SI) (PBMC from RA patients; RA patient 276-0 (HR), disease state IV, burnt out, peptide 10 μg/l): 1
Proliferative response, stimulation index (SI) (PBMC from RA patients; RA patient 276-0 (HR), disease state IV, burnt out, peptide 100 μg/l): < 2
Proliferative response, stimulation index (SI) (PBMC from RA patients; RA patient 280-0 (HR), disease state IV, burnt out, peptide 10 μg/l): < 2
Proliferative response, stimulation index (SI) (PBMC from RA patients; RA patient 280-0 (HR), disease state IV, burnt out, peptide 100 μg/l): 2
Proliferative response, stimulation index (SI) (PBMC from healthy donors; healthy donor 156-03 (NR), peptide 10 μg/ml): < 1
Proliferative response, stimulation index (SI) (PBMC from healthy donors; healthy donor 156-03 (NR), peptide 100 μg/ml): < 2
Proliferative response, stimulation index (SI) (PBMC from healthy donors; healthy donor 157-04 (R), peptide 10 μg/ml): 1
Proliferative response, stimulation index (SI) (PBMC from healthy donors; healthy donor 157-04 (R), peptide 100 μg/ml): 1
Proliferative response, stimulation index (SI) (PBMC from healthy donors; healthy donor 168-03 (NR), peptide 10 μg/ml): 1
Proliferative response, stimulation index (SI) (PBMC from healthy donors; healthy donor 168-03 (NR), peptide 100 μg/ml): < 1
Proliferative response, stimulation index (SI) (PBMC from healthy donors; healthy donor 237-01 (NR), peptide 10 μg/ml): < 1
Proliferative response, stimulation index (SI) (PBMC from healthy donors; healthy donor 237-01 (NR), peptide 100 μg/ml): < 1
Proliferative response, stimulation index (SI) (PBMC from healthy donors; healthy donor 238-01 (NR), second line so labelled, peptide 10 μg/ml): 1
Proliferative response, stimulation index (SI) (PBMC from healthy donors; healthy donor 238-01 (NR), second line so labelled, peptide 100 μg/ml): < 1
Proliferative response, stimulation index (SI) (PBMC from healthy donors; healthy donor 241-01 (R), peptide 10 μg/ml): < 1
Proliferative response, stimulation index (SI) (PBMC from healthy donors; healthy donor 241-01 (R), peptide 100 μg/ml): < 1

Like-named read-outs stand apart in the source and are kept apart here. One block for each compound: values may come before it.
